Source: the NIST ThermoML archive (doi:10.1021/je100410k)

Test: activity coefficient (dimensionless); of the first substance listed, at infinite dilution; xn = mol fraction of the nth substance listed
Conditions: 101 kPa, Liquid, Chromatography, x1 = 0

Work on `CCCCOCCCC` [dibutyl ether] + CCCCn1cc[n+](C)c1.Cc1ccc(S(=O)(=O)[O-])cc1 yielded an activity coefficient (338.2 K) of 29.2 ± 2, an activity coefficient (348.2 K) of 27.7 ± 1.9 and an activity coefficient (358.2 K) of 26.3 ± 1.8. It also gave an activity coefficient (368.2 K) of 25.2 ± 1.7.

Numbers after ± are expanded uncertainties.
